From US6352722B1, “Derivatized carbohydrates, compositions comprised thereof and methods of use thereof” (Quadrant Holdings Cambridge Limited, priority 1997, dated 2002)

Assay: Glass transition temperature (Tg) of derivatized carbohydrates, by DSC
Type: physicochemical
Settings: derivatized carbohydrate alone, Tables 1-4
Description: The reaction product can be characterized structurally by methods known in the art, including, but not limited to, nuclear magnetic resonance spectroscopy (NMR) and its material science properties characterized by differential scanning calorimetry (DSC). The characteristic melting points and Tgs (glass transition temperatures) for the derivatized carbohydrates can also be determined by DSC and other methods known in the art.
The carbohydrate derivatives were routinely synthesized by standard esterification of the carbohydrate with the chloride of the desired hydrocarbon side chain under anhydrous conditions and the resulting derivatives purified by standard techniques of solvent extraction and re-crystallization. For example, trehalose octa-3,3-dimethylbutyrate was synthesized by reacting 3,3,-dimethylbutyroyl chloride with trehalose in anhydrous pyridine, followed by extraction with ether, hydrochloric acid, potassium carbonate solution and water and finally re-crystallized twice from alcohol to yield colorless, needle-like crystals (˜80% yield) of m.pt 138-140° C., αD 112°. Trehalose hexa-3,3-dimethylbutyrate (THEX) can be prepared by protecting the 6,6′-hydroxy group of trehalose with a bulky group such as trityl or t-butyldiphenylsilyl, for example by heating trehalose and trityl chloride in pyridine. […]

## Trehalose tetra-3,3-dimethylbutyrate
  Tg(° C.): 82 °C
